From patent US9545409B2, “Use of 1-adamantylethyloxy-3-morpholino-2-propanol or pharmaceutically acceptable salts thereof in pharmaceutical compositions as a neuroretinal protector” (priority 2012, dated 2017) come the findings set out here.

The assay relates to ischemia-reperfusion eye model. The note with it: rats, parenteral, within 96 hours of ischemia, doses of 3; 5; 10; 20 and 100 mg/kg.

For the compound `OC(COCCC12CC3CC(CC(C3)C1)C2)CN1CCOCC1` (stereo not shown) [1-adamantylethyloxy-3-morpholino-2-propanol], the “disturbed indicators of acid-alkali balance, oxidative stress and energy metabolism in ischemic brain” value was “promoted the normalization”.
